For one substance, Ki results are on record in article PMC11694514, “Structural and kinetic characterization of DUSP5 with a Di-phosphorylated tripeptide substrate from the ERK activation loop” (Frontiers in chemical biology, 2024).

The target in the assay is T1, DUSP5pdWT (Homo sapiens, UniProt Q16690).
T1 sequence (Q16690 178-319 limits assumed): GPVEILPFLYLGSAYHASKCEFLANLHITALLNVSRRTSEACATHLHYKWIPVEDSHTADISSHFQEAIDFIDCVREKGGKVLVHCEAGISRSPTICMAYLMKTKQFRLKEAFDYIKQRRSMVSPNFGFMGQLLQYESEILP
In words: Steady state inhibition of pNPP hydrolysis by vanadate and phosphate. The following applies: pNPP substrate; Tris pH 7.5, 0.045 mM DTT; global kinetics analysis.

For the substance sodium vanadate, affinity was put at a Ki of 638 nM.
